For this experiment, the target named is Tubulin alpha chain (Sus scrofa) (UniProt P02550). The experiment can be described thus: Initial tubulin polymerization rate relative to taxol. The format is functional.

Protein sequences, listed by entry. Tags and fused reporters are not part of them.
UniProt P02550, whole entry, looked up: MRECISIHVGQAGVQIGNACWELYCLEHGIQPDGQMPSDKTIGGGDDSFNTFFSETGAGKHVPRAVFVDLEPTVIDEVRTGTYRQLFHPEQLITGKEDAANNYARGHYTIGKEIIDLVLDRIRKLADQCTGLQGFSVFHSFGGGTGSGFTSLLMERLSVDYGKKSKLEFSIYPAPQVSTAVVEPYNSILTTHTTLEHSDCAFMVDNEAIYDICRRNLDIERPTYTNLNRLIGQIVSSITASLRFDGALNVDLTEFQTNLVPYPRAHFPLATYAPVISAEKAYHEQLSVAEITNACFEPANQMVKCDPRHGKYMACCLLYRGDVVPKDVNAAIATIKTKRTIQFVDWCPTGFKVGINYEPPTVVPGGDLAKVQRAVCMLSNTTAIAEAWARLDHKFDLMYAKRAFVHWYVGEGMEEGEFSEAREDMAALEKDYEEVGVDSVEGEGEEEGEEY

Regarding `CC(=O)O[C@H]1C(=O)[C@@]2(C)C([C@H](OC(=O)c3ccccc3)[C@]3(O)C[C@H](OC(=O)[C@H](O)[C@@H](NC(=O)c4ccccc4)c4ccccc4)C(C)=C1C3(C)C)[C@]1(OC(C)=O)CO[C@@H]1C[C@H]2O` (some centres not stated), the Initial rate ratio came out at 0.45.

`CC(=O)O[C@H]1C(=O)[C@@]2(C)[C@H]([C@H](OC(=O)c3ccccc3)[C@]3(O)C[C@H](OC(=O)[C@H](O)[C@@H](NC(=O)c4ccccc4)c4ccccc4)C(C)=C1C3(C)C)[C@]1(OC(C)=O)CO[C@@H]1C[C@@H]2O` [PACLITAXEL]: the Initial rate ratio stood at 1.

(Values after ChEMBL document CHEMBL1151531, “Taxol structure-activity relationships: synthesis and biological evaluation of taxol analogs modified at C-7” (Bioorg Med Chem Lett, 1994).)
